# Binding of CDR-mutated scFvs to a peptide of the spike HR2 region

From the AlphaSeq antibody data of Li et al. 2023 (doi:10.1038/s41467-023-39022-2), copy in the FLAb collection.

Target: peptide PDVDLGDISGINAS, taken from heptad repeat 2 (HR2) of SARS-CoV-2 spike.

Parent scFv Ab-14: VH joined to VL by a 15-residue (Gly4Ser)3 linker. Changes lie in the heavy chain CDRs alone.
VH: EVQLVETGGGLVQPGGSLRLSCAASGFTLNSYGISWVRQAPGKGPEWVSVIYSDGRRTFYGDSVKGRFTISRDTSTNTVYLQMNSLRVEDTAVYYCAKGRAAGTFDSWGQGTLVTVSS
VL: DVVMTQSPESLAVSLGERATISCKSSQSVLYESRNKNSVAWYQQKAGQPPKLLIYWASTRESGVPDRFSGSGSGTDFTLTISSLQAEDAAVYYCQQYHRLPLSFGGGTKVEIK

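The starting antibody came from a phage panning campaign against this peptide. Designed CDR sequences, proposed from the first random library and measured here. Group labels follow the data file (Ctrl: baseline library sampled from a position-specific scoring matrix, with some repeated check sequences; Rand: our label for a block that the file lists under HC and that is probably the random mutants of the ten best first-round binders; En: ensemble of fine-tuned language models; GP: Gaussian process model; GPLM: also part of the Gaussian process libraries; HC: hill climbing; Gen: genetic algorithm; Gibbs: Gibbs sampling; a sequence that several methods proposed may carry one label only). In AlphaSeq, yeast of one mating type display the scFv and yeast of the other type display the target. Pairs that bind mate more often; barcode pairs of the diploids are counted by sequencing. Each replicate has its own calibration line, from reference interactions of the BCL2 family. The assay was run in six technical replicates.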

Each variant is given by its three heavy chain CDRs, as the data file delimits them; those of the parent are GFTLNSYGIS, VIYSDGRRTFYGDSVK, GRAAGTFDS. Affinities are written as log10 Kd with Kd in nM; a lower number is a better binder. A mean of the replicates is given; it leaves out those without a signal. Where no diploid with the target was found in any replicate, the entry reads "not detected": below detection, most likely a poor binder, though not proof of it.

| CDR-H1 | CDR-H2 | CDR-H3 | group | mean log10 Kd (nM) | seen in |
|---|---|---|---|---|---|
| GFELNSYGIS | VIYSDGRRTFYIDSVK | GRVAGTFDS | GPLM_Gibbs | 0.97 | 6/6 |
| GFALNSYGIS | VIYSDGRRTAYGDSYK | GRAAGTFDS | Ctrl | 1.96 | 4/6 |
| GFDLNSYGIS | VIYSDGRRTFYVDDVK | GNAAGTFDS | GPLM_Gibbs | -0.10 | 6/6 |
| GFSLNSYGIS | VIYSDGRRTFYGDSVK | GATAGTFDR | GPLM_Gen | 0.47 | 6/6 |
| GFDLEEYGIS | VIYADGMRTAYSDSVK | GNVAGTFDL | En_Gen | -0.54 | 6/6 |
| GFTLNSYGIS | VIYSDGRRVAYNDSVA | GRDADTFDS | Ctrl | not detected | 0/6 |
| GFTLNEYGIS | VIYSDGRRTFYGDSVK | GRAAWTFDS | Ctrl | not detected | 0/6 |
| GFDLNEYGIS | VIYADGRRTFYADSVK | GNQAGTFDT | En_HC | -0.65 | 6/6 |
| GFDLNSYGIS | VIMSDGRRTFYGLSVK | GRAAGWFNS | Rand | not detected | 0/6 |
| GFSLNEYGIS | VIYSDGRRTFYGDSVK | GRCAGTFDS | GPLM_Gen | 1.41 | 4/6 |
| GFDLDEYGIS | VIYADGRRTAYTDSVK | GENAGTFDI | En_Gen | not detected | 0/6 |
| GFQLDEFGIS | VIYADGKRSSYVDDVK | GETTGGFKV | En_Gibbs | not detected | 0/6 |
| GFDLNEYGIS | VIYADGMRTFYTDSVK | GEVAGTFDT | En_HC | 0.23 | 6/6 |
| GFELNSYGIS | VIYSDGRRTFYIDSVK | GEAAGTFDK | GPLM_Gibbs | 0.63 | 6/6 |
| HFSLNSYGIS | VIYSDGRRTFYADSVK | GQAAGTFDS | GPLM_Gen | 1.09 | 6/6 |
| GFTLNMYGIS | VIYPDGRRTFYSDSVK | GRAAGFFDS | Rand | not detected | 0/6 |
| GFDLNEYGIS | VIYADGMRTAYQDSVK | GENAGTFDL | En_Gen | -0.28 | 6/6 |
| GFSLNDYGIS | VIYSDGRRTFYGDAVK | GKAAGTFDS | GP_Gibbs | 0.41 | 6/6 |
| GFDLNEYGIS | VIYADGRRTFYSDSVK | GENAGTFDQ | En_HC | -0.58 | 6/6 |
| GFDLNEYGIS | VIYADGMRTAYADSVK | GNQAGTFDT | En_Gen | -0.47 | 6/6 |
| GFNLEEYGIS | VIYADGKRTKYSDNVK | GHIGNVRVV | En_Gibbs | 2.88 | 1/6 |
| GFTLNSYGIS | VIYSDGRRTFYGDSVK | GRAAGTFPS | Ctrl | not detected | 0/6 |
| GFDLDEYGIS | VIYADGMRTAYADDVK | GSNAGTFDI | En_Gen | 0.72 | 6/6 |
| GLTLNSYGIS | VIYSDGRRTFYYDSVK | GRAAFTFDL | Ctrl | not detected | 0/6 |
| GFNLNEYGIS | VIYADGRRRAVIDQVK | GLVSFDFDL | En_Gibbs | not detected | 0/6 |
| GFTLNEYGIS | VIYADGRRTFYSDSVY | GRLAGSFDS | Ctrl | -0.18 | 6/6 |
| GFTLNSYGIS | VIYSDGQRTFYADSVK | GRTAGTFDS | GPLM_Gen | 0.74 | 5/6 |
| GFDLNEYGIS | VIYADGRRTFYADSVK | GKLAGTFNV | En_HC | 0.23 | 6/6 |
| GFDLNEYGIS | VIYADGMRTAYADSVK | GNMAGTFDV | En_Gen | -0.20 | 6/6 |
| GFDLQELGIS | VIYADGTREAYSEKVK | GQLAGYFVF | En_Gibbs | not detected | 0/6 |
| GFNLDEYGIS | VIYADGRRTFYSDSVK | GEAGGTFDI | En_HC | 0.63 | 6/6 |
| GFTLNEYGIS | VIYSDGRRTFYADSVK | GRMAGTFDS | GPLM_Gen | 0.06 | 6/6 |
| GFDLNEYGIS | VIYADGRRTAYDDSVK | GNVAGTFDS | En_HC | -0.20 | 6/6 |
| GFNLNEYGIS | VIYADGMRVRYANNFK | GKLNTTLMV | En_Gibbs | 3.28 | 1/6 |
| GFNLDEYGIS | VIYADGRRTFYSDSVK | GEVAGTFDL | En_HC | -0.45 | 6/6 |
| GFQLNDYGIS | VIYSDGRRTFYQDHVK | GKAAGTFDS | GP_HC | 1.44 | 5/6 |
| GYDLDQYGIS | VIYADGMRSVYADSVK | GHEGDILYV | En_Gibbs | not detected | 0/6 |
| GFTLNSYGIS | VIYADGRRTFYGDSVK | GRAAGTFIS | GPLM_Gen | not detected | 0/6 |
| GFDLNEYGIS | VIYADGVRTFYTDSVK | GANAGTFDV | En_HC | -0.55 | 6/6 |
| GFSLNSYGIS | VIYSDGRRTFYVDSVK | GGVAGTFDS | GPLM_Gibbs | 0.90 | 6/6 |
| GFDLNEYGIS | VIYADGMRQAYAQNVK | GVHVCWMVI | En_Gibbs | not detected | 0/6 |
| GFTLNEYGIS | VIYSDGRRTFYSDSVK | GHAAGTFDL | GP_HC | -0.19 | 6/6 |
| GFDLNEYGIS | VIYADGRRSFYADSVK | GQLAGTFDF | En_HC | -0.60 | 6/6 |
| GFDLNEYGIS | VIYADGKRTFYTDSVK | GEHAGIFDV | En_HC | -0.27 | 6/6 |
| GFSLNNYGIS | VIYSDGKRTFYGDSVK | GRTAGTFDS | GPLM_Gen | 0.61 | 6/6 |
| GFNINEYGIS | VIYADGQRLSYDDKVK | GDITGTFNL | En_Gibbs | not detected | 0/6 |
| GFDLDEYGIS | VIYADGSRTAYSDSVK | GNVAGTFDT | En_Gen | 0.11 | 6/6 |
| GFDLNEYGIS | VIYADGLRTFYTDSVK | GEFAGTFDL | En_HC | 0.74 | 6/6 |
| GFNLDEYGIS | VIYADGTRTNYLDTVK | GVTGATFIQ | En_Gibbs | not detected | 0/6 |
| GFSLNEYGIS | VIYSDGRRTFYGDSVK | GWAAGTFDR | GP_HC | not detected | 0/6 |
| GFDIDEMGIS | VIYADGVRTAYENKFK | GKNLGLGFV | En_Gibbs | not detected | 0/6 |
| GFSLNDYGIS | VIYSDGRRTFYIDSVK | GRTAGTFDS | GPLM_Gen | -0.36 | 6/6 |
| GFNLNEYGIS | VIYADGRRTFYADSVK | GEVAGTFDI | En_HC | -0.45 | 6/6 |
| GFTLNSYGIS | VIYSDGRRTFYGDSVK | GRVAGTFES | Ctrl | 1.82 | 5/6 |
| GFSLNSYGIS | VIYSDGRRTFYADSVK | GKTAGTFDT | GPLM_Gen | -0.45 | 6/6 |

The last 3 entries again:

| CDR-H1 | CDR-H2 | CDR-H3 | group | mean log10 Kd (nM) | seen in |
|---|---|---|---|---|---|
| GFNLNEYGIS | VIYADGRRTFYADSVK | GEVAGTFDI | En_HC | -0.45 | 6/6 |
| GFTLNSYGIS | VIYSDGRRTFYGDSVK | GRVAGTFES | Ctrl | 1.82 | 5/6 |
| GFSLNSYGIS | VIYSDGRRTFYADSVK | GKTAGTFDT | GPLM_Gen | -0.45 | 6/6 |

The parent sequence was in this pool as ten entries: three were never detected, three once, and four in most replicates, with averages from 0.34 to 2.37. A sequence measured in both rounds can read differently, since the two assays cover different ranges. Three control strains display no target. For all heavy chain designs, 1% of the pairings with them gave a signal, with a median of 2.08 and one signal in twenty below 0.84, so weak values seen in few replicates may be background. The authors' rule: three or more of the six replicates give a measured affinity, fewer mean a poor binder.